Where two headings read alike, the source gives them in different places.
Experiments:
[1] = tested on: MCF7 (human breast cancer cells), low EGFR-expressing cell line; experiment: Cytotoxicity assay of using aluminum phthalocyanine to MCF7 cells (CCK-8); assay type: cell-based
[2] = tested on: MCF7 (human breast cancer cells), low EGFR-expressing cell line; settings: read-out: EC50 (IT-Cetuximab concentration showing 50% viability), IT-Cetuximab + 20 μM Talaporfin Sodium + light irradiation (650 nm, 37.6 mJ/cm^2), 72 hours culture

With “IT-Cetuximab: biotinylated Cetuximab (anti-EGFR antibody) equivalently mixed with streptavidin-saporin to obtain saporin-bound Cetuximab” the EC50 ([1]; IT-Cetuximab + 1 μM AlPcS2a + light irradiation (650 nm, 18.8 mJ/cm^2), 72 hours culture, read-out: EC50 (IT-Cetuximab concentration showing 50% viability)) was 290 pM, the cytotoxic effects ([1]; immunotoxin alone at 20 nM, no photosensitizing dye, no light) was “no cytotoxic effects could be obtained” and the EC50 [2] was 610 pM.
